Source: ChEMBL document CHEMBL5120864, “Targeting Enhancer of Zeste Homolog 2 for the Treatment of Hematological Malignancies and Solid Tumors: Candidate Structure-Activity Relationships Insights and Evolution Prospects” (J Med Chem, 2022)

The chains behind the UniProt entries cited, without tags or fusion partners.
UniProt Q15910, whole entry: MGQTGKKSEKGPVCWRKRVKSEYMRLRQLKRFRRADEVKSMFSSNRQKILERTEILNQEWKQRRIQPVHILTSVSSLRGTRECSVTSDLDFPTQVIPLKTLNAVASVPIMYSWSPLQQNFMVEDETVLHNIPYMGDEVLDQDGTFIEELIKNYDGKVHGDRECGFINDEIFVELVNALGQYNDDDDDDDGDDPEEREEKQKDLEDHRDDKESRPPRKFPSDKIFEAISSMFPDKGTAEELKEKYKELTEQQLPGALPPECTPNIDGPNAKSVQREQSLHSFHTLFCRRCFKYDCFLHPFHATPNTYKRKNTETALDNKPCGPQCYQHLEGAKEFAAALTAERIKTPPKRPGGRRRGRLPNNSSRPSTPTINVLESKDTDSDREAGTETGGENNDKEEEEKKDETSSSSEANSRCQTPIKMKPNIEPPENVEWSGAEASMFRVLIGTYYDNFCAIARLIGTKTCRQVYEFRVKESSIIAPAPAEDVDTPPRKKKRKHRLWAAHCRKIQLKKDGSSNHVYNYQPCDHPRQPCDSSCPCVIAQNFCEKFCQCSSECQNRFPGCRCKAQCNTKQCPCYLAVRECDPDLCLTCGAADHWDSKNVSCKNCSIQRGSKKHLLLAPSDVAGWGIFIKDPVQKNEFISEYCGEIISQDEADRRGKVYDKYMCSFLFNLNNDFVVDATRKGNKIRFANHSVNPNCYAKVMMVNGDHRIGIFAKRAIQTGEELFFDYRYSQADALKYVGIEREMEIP
UniProt Q15910, whole entry Y641F: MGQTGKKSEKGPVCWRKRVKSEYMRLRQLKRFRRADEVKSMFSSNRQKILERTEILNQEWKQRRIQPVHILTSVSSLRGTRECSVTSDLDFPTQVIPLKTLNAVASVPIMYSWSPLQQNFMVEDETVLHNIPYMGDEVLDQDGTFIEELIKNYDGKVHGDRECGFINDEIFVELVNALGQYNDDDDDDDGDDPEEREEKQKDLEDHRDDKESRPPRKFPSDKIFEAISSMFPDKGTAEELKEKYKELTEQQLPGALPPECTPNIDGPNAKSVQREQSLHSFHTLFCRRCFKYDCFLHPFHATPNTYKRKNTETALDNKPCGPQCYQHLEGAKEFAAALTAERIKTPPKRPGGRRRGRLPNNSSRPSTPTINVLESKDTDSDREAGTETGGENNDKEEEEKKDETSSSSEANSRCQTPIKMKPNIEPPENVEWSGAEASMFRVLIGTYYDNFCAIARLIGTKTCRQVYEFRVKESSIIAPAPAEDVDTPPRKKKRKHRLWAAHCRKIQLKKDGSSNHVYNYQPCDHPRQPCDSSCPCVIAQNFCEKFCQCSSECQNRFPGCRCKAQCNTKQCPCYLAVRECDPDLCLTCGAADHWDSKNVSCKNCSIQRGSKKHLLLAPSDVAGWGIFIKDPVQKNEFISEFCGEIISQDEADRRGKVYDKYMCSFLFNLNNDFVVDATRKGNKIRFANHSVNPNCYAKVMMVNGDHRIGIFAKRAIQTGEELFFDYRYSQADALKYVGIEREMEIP

Experiments:
[1] = target: Histone-lysine N-methyltransferase EZH2 (Homo sapiens, UniProt Q15910)
[2] = target: Histone-lysine N-methyltransferase EZH2 (Homo sapiens, UniProt Q15910, Y641F)

Structure (SMILES)	IC50 [1]	IC50 [2]
Cc1cc(C)c(CNC(=O)c2cc3cccn3c(C(C)N3CCOCC3)c2C)c(=O)[nH]1 (configuration not stated)	< 100 nM	< 100 nM
CCN(c1cc(O[C@H]2C[C@H](N3CCCCC3)C2)cc(C(=O)NCc2c(C)cc(C)[nH]c2=O)c1C)C1CCC(F)(F)CC1	1 nM	0.6 nM
COc1cc(C)[nH]c(=O)c1CNC(=O)c1cc2c(-c3ccn[nH]3)ccn2c(C(C)N2CCN(CC(F)(F)F)CC2)c1C (configuration not stated)	< 100 nM	< 100 nM
CCN(c1cc(O[C@H]2C[C@H](N3CCCCC3)C2)cc(C(=O)NCc2c(OC)cc(C)[nH]c2=O)c1C)C1CCC(F)(F)CC1	0.6 nM	
